Laboratory results as given in PubChem BioAssay AID1347055 (National Center for Advancing Translational Sciences (NCATS), 2019).
Only a part is listed here, and it is no random draw. Results filed as inconclusive are left out. Active and inactive are the calls of the source. Calls come from the whole dose curve; as a rule, active = well fitted inhibition curve with a large enough effect; inconclusive = small, poorly fitted or top-dose-only effect, or effect the other way; inactive = flat fitted curve, though single readings scatter.

Chains of the proteins cited; added tags and fusions are not shown.
UniProt P07954, whole entry: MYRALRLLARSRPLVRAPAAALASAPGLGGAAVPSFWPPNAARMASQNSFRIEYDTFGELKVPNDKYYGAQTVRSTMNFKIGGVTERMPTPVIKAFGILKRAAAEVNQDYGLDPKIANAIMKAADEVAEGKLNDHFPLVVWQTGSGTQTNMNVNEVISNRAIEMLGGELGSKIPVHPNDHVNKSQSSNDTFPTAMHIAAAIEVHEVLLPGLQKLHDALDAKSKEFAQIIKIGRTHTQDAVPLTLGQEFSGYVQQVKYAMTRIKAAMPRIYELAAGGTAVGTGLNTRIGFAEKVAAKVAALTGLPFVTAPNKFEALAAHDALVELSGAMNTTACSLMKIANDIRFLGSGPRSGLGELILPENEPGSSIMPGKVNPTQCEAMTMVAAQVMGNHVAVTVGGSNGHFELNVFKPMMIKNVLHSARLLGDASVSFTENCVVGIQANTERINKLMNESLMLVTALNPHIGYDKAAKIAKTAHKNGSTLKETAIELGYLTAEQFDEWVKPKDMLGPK

The compounds below were run against Fumarate hydratase, mitochondrial (Homo sapiens) (UniProt P07954) (assay: Identification of activators of human fumarate hydratase by quantitative high-throughput screening). Conditions: FH coupled MDH/diaphorase resazurin fluorescence, 15 min; at 79.9 µM (top of the series) unless noted.
Text: Fumarate hydratase (FH) is a metabolic enzyme that is part of the Krebs-cycle, and reversibly catalyzes the hydration of fumarate to malate. Mutations of the FH gene have been associated with fumarate hydratase deficiency (FHD), hereditary leiomyomatosis, renal cell cancer (HLRCC), and other diseases. Currently there are no high-quality small molecule probes for studying human fumarate hydratase. To address this, we developed a quantitative high throughput screening (qHTS) FH assay and screened a total of 57,037 compounds in dose-response. While no inhibitors of FH were confirmed, a series of phenyl-pyrrolo-pyrimidine-diones (12 compounds) were identified as activators of human fumarate hydratase. […] The binding of two compounds from the series to human fumarate hydratase was confirmed by microscale thermophoresis. The low hit rate in this screening campaign confirmed that FH is a "tough target" to modulate, and the small molecule activators of human fumarate hydratase reported here may serve as a starting point for further optimization and development into cellular probes of human FH and potential drug candidates.
For primary high-throughput screen, 3 ul of FH solution (containing 13.33nM human fumarate hydratase, 13.33IU/ml malic dehydrogenase, 0.2mM NAD, 0.067mg/ml diaphorase and 0.067mM resazurin in the assay buffer (50 mM Tris pH 8.0, 5 mM MgCl2, 0.01% Brij 3) was dispensed into each well in a black solid bottom 1536-well assay plate (Greiner Bio-One) using a BioRAPTR FRD dispenser (Beckman Coulter, Brea, CA). A 1536-well pintool dispenser outfitted with 20 nl pins (Wako Automation, San Diego, CA) was used to transfer 20 nL of DMSO-solubilized compound (Cherrypick plates) to each 1536-well assay plate. Each compound was screened at five concentrations: 15 nM, 151 nM, 1.5 uM, 15.4 uM, 76.9 uM. Following compound transfer, plates were incubated in room temperature for 10 minutes. 1 uL of substrate solution containing fumaric acid (160 uM) was dispensed via BioRAPTR FRD to initiate the reaction. Plates were immediately transferred to a ViewLux microplate imager (PerkinElmer, Waltham, MA), and any resulting resorufin fluorescence was measured (exitation/emission, 525/598 nm) at 0 and 15 minutes. The exposure time is 1 second. Fluorescence from each well was normalized using enzyme-free and DMSO-treated control wells on each plate, and changes in fluorescence (delta RFU) were calculated using the difference in fluorescent signal for each well at 15 minutes versus 0 minutes.
% is set by controls: 0 for no effect and ±100 for the full control effect.
Note: the screen sought activators but most active calls are inhibition curves; nearly all actives have a fitted effect of over 45% in size.

| SMILES | activity change, negative = inhibition |
| --- | --- |
| CCOC(=O)N1CCC(=O)CC1 | inactive: -1.62% [at 53.3 µM] |
| COc1ccccc1C(=O)NCC1(N2CCOCC2)CCCCC1 | inactive: -1.64% |
| O=C(NCC1(N2CCOCC2)CCCCC1)c1ccc(Cl)cc1 | inactive: -28.9% |
| CCOC(=O)C(=O)CBr | inactive: 2.41% [at 53.3 µM] |
| CCOc1ccc(C(=O)NCC2(N3CCOCC3)CCCCC2)cc1 | inactive: 1.74% |
| CCCOc1cccc(C(=O)NCC2(N3CCOCC3)CCCCC2)c1 | inactive: -0.885% |
| CCCCOc1ccccc1C(=O)NCC1(N2CCOCC2)CCCCC1 | inactive: 7.51% |
| O=C(NCC1(N2CCOCC2)CCCCC1)c1ccccc1Br | inactive: 3.07% |
| CCC(=O)N(c1ccccc1)C1CCNCC1 | inactive: 6.31% [at 53.3 µM] |
| O=C(NCC1(N2CCOCC2)CCCCC1)c1ccccc1[N+](=O)[O-] | inactive: -35.1% |
| O=C(NCC1(N2CCOCC2)CCCCC1)c1ccc([N+](=O)[O-])cc1 | inactive: -1.97% |
| O=C(NCC1(N2CCOCC2)CCCCC1)c1ccccc1 | inactive: 4.62% |
| CC(=O)N1CCc2ccc(N(C(=O)/C=C/c3cccc(C#N)c3)C3CCN(CCC4CCCC4)CC3)cc21 | inactive: 1.31% |
| CN(C)C1(CNC(=O)c2ccc(C(C)(C)C)cc2)CCCCC1 | inactive: -14.8% |
| Cc1ccccc1C(=O)NCC1(N(C)C)CCCCC1 | inactive: 3.04% |
| CC(C)(C)c1ccc(C(=O)NCC2(N3CCOCC3)CCCCC2)cc1 | inactive: -6.83% |
| COc1cc(C(=O)NCC2(N3CCOCC3)CCCCC2)cc(OC)c1OC | inactive: 5.18% |
